Reference: publication PMC3773341 (Biology Open, 2013)

The chains behind the UniProt entries cited, without tags or fusion partners. Where a name states a change or a piece, a line headed by the entry shows the natural chain unless it says otherwise.
UniProt O95180: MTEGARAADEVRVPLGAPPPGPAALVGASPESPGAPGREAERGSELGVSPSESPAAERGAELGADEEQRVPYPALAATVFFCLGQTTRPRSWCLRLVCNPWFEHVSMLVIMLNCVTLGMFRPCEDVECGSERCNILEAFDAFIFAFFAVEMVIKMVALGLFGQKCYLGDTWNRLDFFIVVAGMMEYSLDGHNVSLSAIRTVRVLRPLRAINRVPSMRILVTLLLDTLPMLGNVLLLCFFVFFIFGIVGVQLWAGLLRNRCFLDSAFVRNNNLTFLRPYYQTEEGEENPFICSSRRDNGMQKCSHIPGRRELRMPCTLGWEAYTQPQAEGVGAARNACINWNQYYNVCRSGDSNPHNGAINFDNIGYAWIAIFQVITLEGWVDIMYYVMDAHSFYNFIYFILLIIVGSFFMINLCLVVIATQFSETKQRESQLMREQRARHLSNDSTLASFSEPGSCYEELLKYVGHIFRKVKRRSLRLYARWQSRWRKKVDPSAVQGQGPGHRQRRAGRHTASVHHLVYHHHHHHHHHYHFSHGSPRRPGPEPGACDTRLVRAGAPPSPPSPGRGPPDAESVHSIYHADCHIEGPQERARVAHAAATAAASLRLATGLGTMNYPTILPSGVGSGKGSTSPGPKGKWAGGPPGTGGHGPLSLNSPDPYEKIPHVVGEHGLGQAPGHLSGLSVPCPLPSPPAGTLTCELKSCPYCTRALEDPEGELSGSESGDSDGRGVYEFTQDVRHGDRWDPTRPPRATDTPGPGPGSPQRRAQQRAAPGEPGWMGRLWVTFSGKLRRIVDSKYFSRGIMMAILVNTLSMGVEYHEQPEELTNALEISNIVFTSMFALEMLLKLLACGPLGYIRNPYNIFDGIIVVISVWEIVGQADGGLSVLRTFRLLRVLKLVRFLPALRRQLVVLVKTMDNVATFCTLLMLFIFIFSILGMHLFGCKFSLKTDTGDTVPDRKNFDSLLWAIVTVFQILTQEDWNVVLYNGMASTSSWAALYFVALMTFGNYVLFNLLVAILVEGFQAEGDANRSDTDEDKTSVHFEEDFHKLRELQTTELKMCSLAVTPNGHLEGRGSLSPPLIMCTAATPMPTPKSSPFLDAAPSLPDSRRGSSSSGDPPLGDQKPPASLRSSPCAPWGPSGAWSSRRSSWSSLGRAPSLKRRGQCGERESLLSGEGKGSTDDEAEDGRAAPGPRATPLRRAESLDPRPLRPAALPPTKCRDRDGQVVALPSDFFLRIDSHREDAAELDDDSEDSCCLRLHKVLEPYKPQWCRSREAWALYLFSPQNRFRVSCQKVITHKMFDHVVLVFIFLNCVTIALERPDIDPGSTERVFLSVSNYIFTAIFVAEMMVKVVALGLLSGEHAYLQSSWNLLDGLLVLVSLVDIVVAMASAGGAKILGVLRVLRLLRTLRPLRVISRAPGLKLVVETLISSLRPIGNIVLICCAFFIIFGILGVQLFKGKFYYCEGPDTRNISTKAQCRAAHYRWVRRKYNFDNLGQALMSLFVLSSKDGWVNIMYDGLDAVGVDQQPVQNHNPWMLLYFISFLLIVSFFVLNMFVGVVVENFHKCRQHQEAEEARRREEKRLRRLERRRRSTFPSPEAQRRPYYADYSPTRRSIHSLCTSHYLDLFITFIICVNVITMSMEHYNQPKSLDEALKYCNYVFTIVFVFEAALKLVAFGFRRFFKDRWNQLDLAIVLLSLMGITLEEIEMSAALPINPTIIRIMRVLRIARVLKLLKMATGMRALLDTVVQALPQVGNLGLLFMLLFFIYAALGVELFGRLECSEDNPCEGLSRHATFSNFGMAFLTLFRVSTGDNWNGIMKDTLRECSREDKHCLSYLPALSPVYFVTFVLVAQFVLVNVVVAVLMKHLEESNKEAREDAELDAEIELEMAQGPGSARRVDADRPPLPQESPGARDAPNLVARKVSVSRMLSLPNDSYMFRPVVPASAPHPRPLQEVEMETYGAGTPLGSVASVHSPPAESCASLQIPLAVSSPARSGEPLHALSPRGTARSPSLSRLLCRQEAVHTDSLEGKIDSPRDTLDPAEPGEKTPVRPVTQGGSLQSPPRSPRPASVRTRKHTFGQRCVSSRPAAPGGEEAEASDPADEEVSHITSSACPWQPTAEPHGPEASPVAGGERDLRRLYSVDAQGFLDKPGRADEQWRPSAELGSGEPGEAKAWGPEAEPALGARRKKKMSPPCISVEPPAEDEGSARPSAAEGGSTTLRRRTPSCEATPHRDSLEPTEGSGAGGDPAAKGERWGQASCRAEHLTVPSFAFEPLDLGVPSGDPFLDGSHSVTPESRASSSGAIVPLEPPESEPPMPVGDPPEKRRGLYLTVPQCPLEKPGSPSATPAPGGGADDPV

Target: T1, Cav3.2 (α1H) T-type Ca2+ channel (Homo sapiens, UniProt O95180)
T1 construct: gene CACNA1H

Compound	whole-cell patch clamp of T-type current in LNCaP-CTL, LNCaP-NE and Cav3.2-overe
Fc1ccc(C(c2ccc(F)cc2)N2CCN(C/C=C/c3ccccc3)CC2)cc1 [Flu, flunarizine]	5 µM
COCC(=O)O[C@]1(CCN(C)CCCc2nc3ccccc3[nH]2)CCc2cc(F)ccc2[C@@H]1C(C)C [mibefradil]	5 µM
